Tested on: Interleukin 6 (IL6)—JAK1/JAK2-STAT4 Pathway
Test: IL6 CellSensor cell pathway engagement assay (SIE-bla ME-180 cells)
Details: Table 3, comparative examples

CCS(=O)(=O)N1CC(CC#N)(n2cc(-c3ncnc4[nH]ccc34)cn2)C1 [Baricitinib]
EPO/IL-6: 0.43x
